Source: patent US9815851B2, “Pyrrolo carboxamides as modulators of orphan nuclear receptor RAR-related orphan receptor-gamma (RORγ, NR1F3) activity and for the treatment of chronic inflammatory and autoimmune diseases” (PHENEX PHARMACEUTICALS AG, priority 2011, dated 2017)

By UniProt entry, the sequences of proteins in these tests, tags left out. Residues count along the entry.
UniProt P51449, 269-508 limits assumed: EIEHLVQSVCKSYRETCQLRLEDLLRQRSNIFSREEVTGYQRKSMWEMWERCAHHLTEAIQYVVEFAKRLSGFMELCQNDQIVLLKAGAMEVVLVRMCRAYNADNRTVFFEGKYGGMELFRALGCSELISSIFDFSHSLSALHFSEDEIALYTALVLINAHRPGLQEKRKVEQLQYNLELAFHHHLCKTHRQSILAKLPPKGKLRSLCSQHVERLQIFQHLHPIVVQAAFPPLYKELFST

What was measured:
[1] = biological target: RORγ ligand binding domain (LBD) (Homo sapiens, UniProt P51449); test: TR-FRET Activity Assay (ligand sensing, RORγ-LBD / coactivator peptide interaction, LANCE); type: biochemical; settings: first value of the cell FRET/FF/REN
[2] = biological target: RORγ (UniProt P51449); test: RORγ Gal4 Reporter Gene Assay in 293T cells (firefly and renilla luciferase); type: cell-based, human; settings: for pIC50 (FF): second value of the cell, firefly luciferase; for pIC50 (REN): third value of the cell, renilla normalised luciferase

Row | SMILES | pIC50 (FRET) [1] | pIC50 (FF) [2] | pIC50 (REN) [2]
1 | Cc1c(C(=O)NCC2CNCCO2)cc(-c2cc(C(C)(C)C)c3c(c2)C2(CCO3)CC2)n1CC1CCCCC1.Cl (centres unmarked) [17/7] | 5.5/<4.7/<4.7 | – | –
2 | Cc1c(C(=O)NC2CCOCC2)cc(-c2cc(C(=O)NC(C)(C)C)c3ccccn23)n1CC1CCCCC1 | 5.8 | 6.9 | 6.9
3 | COCC(=O)N1CC(NC(=O)c2cc(-c3cc(C(C)(C)C)cc(C(C)(C)C)c3)n(CC3CCCCC3)c2C)C1 | 6.2 | 6.4 | 6.4
4 | COCCCCNC(=O)c1cc(-c2cc(C(C)(C)C)cc(C(C)(C)C)c2)n(CC2CCCCC2)c1C | 6.8 | 6.4 | 6.5
5 | Cc1c(C(=O)NC2COC2)cc(-c2cc(C(C)(C)C)cc(S(=O)(=O)N(C)C(C)(C)C)c2)n1CC1CCCCC1 | 6.1 | 7.1 | 7.2
6 | Cc1c(C(=O)NCC(C)(C)N)cc(-c2cc(C(C)(C)C)c3c(c2)C2(CCO3)CC2)n1CC1CCCCC1.Cl [17/27] | 5.6/6.3/6.5 | – | –
